Here are results for 12 compounds from PMC3445454, “Broad and Cross-Clade CD4^+ T-Cell Responses Elicited by a DNA Vaccine Encoding Highly Conserved and Promiscuous HIV-1 M-Group Consensus Peptides” (PLoS ONE, 2012).

By UniProt entry, the sequences of proteins in these tests, tags left out. Residues count along the entry.
UniProt P01920, 33-261: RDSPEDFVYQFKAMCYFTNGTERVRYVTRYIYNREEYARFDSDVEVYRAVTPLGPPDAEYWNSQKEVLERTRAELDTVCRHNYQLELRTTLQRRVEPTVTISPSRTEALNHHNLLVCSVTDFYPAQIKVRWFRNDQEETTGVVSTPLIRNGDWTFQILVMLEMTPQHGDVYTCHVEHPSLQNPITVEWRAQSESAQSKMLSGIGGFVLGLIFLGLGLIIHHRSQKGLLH

This assay addresses HLA-DQ DQA1*05:01/DQB1*03:01 (Homo sapiens, UniProt P01909+P01920). Briefly: biochemical.
`CSCC[C@H](NC(=O)[C@H](CCCCN)NC(=O)[C@H](C)NC(=O)[C@H](Cc1ccc(O)cc1)NC(=O)[C@H](CCCCN)NC(=O)CNC(=O)[C@@H](NC(=O)[C@H](CCCCN)NC(=O)[C@H](CC(C)C)NC(=O)[C@H](CC(N)=O)NC(=O)[C@H](CCCCN)NC(=O)[C@H](Cc1ccccc1)NC(=O)[C@@H]1CCCN1C(=O)[C@H](CCC(=O)O)NC(=O)[C@@H](N)CCC(N)=O)[C@@H](C)O)C(N)=O` [RT(343-357)]: the IC50 stood at 24.4 µM. The result for `CSCC[C@H](NC(=O)[C@H](CCCCN)NC(=O)[C@H](C)NC(=O)[C@@H](N)Cc1ccc(O)cc1)C(=O)N[C@@H](CCCNC(=N)N)C(=O)N[C@@H](CO)C(=O)N[C@@H](C)C(=O)N[C@@H](Cc1c[nH]cn1)C(=O)N[C@H](C(=O)N[C@@H](CC(N)=O)C(=O)N[C@@H](CC(=O)O)C(=O)N[C@H](C(=O)N[C@@H](CCCCN)C(=O)N[C@@H](CCC(N)=O)C(=O)N[C@@H](CC(C)C)C(N)=O)C(C)C)[C@@H](C)O` [RT(354-368)] reads 0.463 µM; that for `CC[C@H](C)[C@H](NC(=O)[C@H](CCCCN)NC(=O)[C@H](CCC(N)=O)NC(=O)[C@@H](NC(=O)[C@H](C)NC(=O)[C@H](CCC(=O)O)NC(=O)[C@@H](N)[C@@H](C)O)C(C)C)C(=O)N[C@@H](C)C(=O)N[C@H](C(=O)N[C@@H](CCC(=O)O)C(=O)N[C@@H](CO)C(=O)N[C@H](C(=O)N[C@H](C(=O)N[C@H](C(=O)N[C@@H](Cc1c[nH]c2ccccc12)C(=O)NCC(=O)N[C@@H](CCCCN)C(=O)N[C@H](C(=O)N1CCC[C@H]1C(=O)N[C@@H](CCCCN)C(=O)N[C@@H](Cc1ccccc1)C(=O)N[C@@H](CCCNC(=N)N)C(=O)N[C@@H](CC(C)C)C(N)=O)[C@@H](C)O)[C@@H](C)CC)C(C)C)[C@@H](C)CC)[C@@H](C)O` [RT(369-391)], 9.07 µM. The result for `CC(C)C[C@H](NC(=O)[C@H](CCCCN)NC(=O)[C@@H](NC(=O)[C@H](CC(C)C)NC(=O)[C@@H]1CCCN1C(=O)[C@@H]1CCCN1C(=O)[C@@H](NC(=O)[C@H](CC(N)=O)NC(=O)[C@@H](NC(=O)[C@H](Cc1ccccc1)NC(=O)[C@H](CCC(=O)O)NC(=O)[C@H](Cc1c[nH]c2ccccc12)NC(=O)[C@@H](N)CCC(=O)O)C(C)C)[C@@H](C)O)C(C)C)C(=O)N[C@@H](Cc1c[nH]c2ccccc12)C(=O)N[C@@H](Cc1ccc(O)cc1)C(N)=O` [RT(413-427)] reads 25.5 µM.

In turn, `CC[C@H](C)[C@H](NC(=O)[C@@H]1CCCN1C(=O)[C@H](CCC(=O)O)NC(=O)[C@@H](N)CCCCN)C(=O)N[C@H](C(=O)NCC(=O)N[C@@H](C)C(=O)N[C@@H](CCC(=O)O)C(=O)N[C@H](C(=O)N[C@@H](Cc1ccccc1)C(=O)N[C@@H](Cc1ccc(O)cc1)C(=O)N[C@H](C(=O)N[C@@H](CC(=O)O)C(=O)NCC(=O)N[C@@H](C)C(N)=O)C(C)C)[C@@H](C)O)C(C)C` [RT(431-445)] had an IC50 of 0.249 µM.

In turn, `CC[C@H](C)[C@H](NC(=O)CNC(=O)[C@H](CCCCN)NC(=O)[C@H](Cc1c[nH]cn1)NC(=O)[C@H](C)NC(=O)[C@@H]1CCCN1C(=O)[C@@H](NC(=O)[C@H](Cc1c[nH]c2ccccc12)NC(=O)[C@H](CO)NC(=O)[C@H](CC(C)C)NC(=O)[C@H](Cc1ccc(O)cc1)NC(=O)[C@@H](NC(=O)[C@H](CCCCN)NC(=O)[C@H](CCC(=O)O)NC(=O)[C@@H](N)CCCCN)C(C)C)C(C)C)C(=O)NCC(=O)NCC(=O)N[C@@H](CC(N)=O)C(=O)N[C@@H](CCC(=O)O)C(N)=O` [RT(528-546)] came in with an IC50 of 0.681 µM. Against the preceding compound, the IC50 is about 2.7-fold higher. Regarding `CC[C@H](C)[C@H](NC(=O)[C@H](Cc1ccc(O)cc1)NC(=O)CNC(=O)[C@H](CO)NC(=O)[C@H](C)NC(=O)[C@@H](NC(=O)[C@H](Cc1c[nH]cn1)NC(=O)[C@@H](NC(=O)[C@H](C)NC(=O)[C@@H](NC(=O)[C@H](CC(C)C)NC(=O)[C@@H](NC(=O)[C@@H](NC(=O)[C@H](CCCCN)NC(=O)CNC(=O)[C@@H](N)CCC(=O)O)[C@@H](C)CC)[C@@H](C)CC)C(C)C)C(C)C)C(C)C)C(=O)N[C@@H](CCC(=O)O)C(N)=O` [integrase(69-85)], the IC50 worked out at 3.84 µM.

With `CC[C@H](C)[C@H](NC(=O)[C@@H](NC(=O)[C@H](CCCCN)NC(=O)[C@@H](NC(=O)[C@@H]1CCCN1C(=O)[C@H](Cc1c[nH]c2ccccc12)NC(=O)[C@H](CCCNC(=N)N)NC(=O)CNC(=O)[C@H](C)NC(=O)[C@H](CC(C)C)NC(=O)[C@H](CCCCN)NC(=O)[C@H](CC(C)C)NC(=O)[C@@H](NC(=O)[C@H](Cc1ccccc1)NC(=O)[C@H](Cc1ccc(O)cc1)NC(=O)[C@H](C)NC(=O)[C@@H](NC(=O)[C@@H](N)CCC(=O)O)[C@@H](C)O)[C@@H](C)CC)C(C)C)C(C)C)C(N)=O` [integrase(96-113)], inhibition was half-maximal at 7.52 µM (IC50).

As for `CC[C@H](C)[C@H](NC(=O)[C@H](CCCCN)NC(=O)[C@@H](NC(=O)[C@@H](NC(=O)[C@@H](N)CCC(N)=O)[C@@H](C)CC)[C@@H](C)O)C(=O)N[C@@H](CCC(N)=O)C(=O)N[C@@H](CC(N)=O)C(=O)N[C@@H](Cc1ccccc1)C(=O)N[C@@H](CCCNC(=N)N)C(=O)N[C@H](C(=O)N[C@@H](Cc1ccc(O)cc1)C(=O)N[C@@H](Cc1ccc(O)cc1)C(=O)N[C@@H](CCCNC(=N)N)C(=O)N[C@@H](CC(=O)O)C(=O)N[C@@H](CO)C(=O)N[C@@H](CCCNC(=N)N)C(=O)N[C@@H](CC(=O)O)C(=O)N1CCC[C@H]1C(=O)N[C@H](C(=O)N[C@@H](Cc1c[nH]c2ccccc12)C(N)=O)[C@@H](C)CC)C(C)C` [integrase(216-235)], the IC50 was determined as 5.99 µM. With `CC[C@H](C)[C@H](NC(=O)[C@@H](NC(=O)[C@H](CCCCN)NC(=O)[C@H](C)NC(=O)[C@H](CCCCN)NC(=O)[C@H](CCCNC(=N)N)NC(=O)[C@H](CCCNC(=N)N)NC(=O)[C@@H]1CCCN1C(=O)[C@@H](NC(=O)[C@@H](NC(=O)[C@H](CCCCN)NC(=O)[C@@H](NC(=O)[C@H](CC(=O)O)NC(=O)[C@H](CO)NC(=O)[C@H](CC(N)=O)NC(=O)[C@H](CC(=O)O)NC(=O)[C@H](CCC(N)=O)NC(=O)[C@@H](NC(=O)[C@@H](NC(=O)[C@@H](N)C(C)C)C(C)C)[C@@H](C)CC)[C@@H](C)CC)C(C)C)C(C)C)[C@@H](C)CC)C(N)=O` [integrase(249-268)], the 50% inhibitory concentration (IC50) turned out to be 22 µM. For `CC[C@H](C)[C@H](N)C(=O)N[C@@H](CCCNC(=N)N)C(=O)N[C@@H](Cc1ccc(O)cc1)C(=O)N1CCC[C@H]1C(=O)N[C@@H](CC(C)C)C(=O)N[C@H](C(=O)N[C@@H](Cc1ccccc1)C(=O)NCC(=O)N[C@@H](Cc1c[nH]c2ccccc12)C(=O)N[C@@H](CS)C(=O)N[C@@H](Cc1ccccc1)C(=O)N[C@@H](CCCCN)C(=O)N[C@@H](CC(C)C)C(=O)N[C@H](C(=O)N1CCC[C@H]1C(=O)N[C@H](C(=O)N[C@@H](CC(=O)O)C(=O)N1CCC[C@H]1C(=O)N[C@@H](CCCNC(=N)N)C(=O)N[C@@H](CCC(=O)O)C(=O)N[C@H](C(=O)N[C@@H](CCC(=O)O)C(=O)N[C@@H](CCC(=O)O)C(=O)N[C@@H](C)C(N)=O)C(C)C)C(C)C)C(C)C)[C@@H](C)O` [nef(133-156)], the concentration for half-maximal inhibition (IC50) stood at 18.5 µM. The IC50 values of the last two compounds are within 1.5-fold of each other.

On to `CC(C)C[C@H](NC(=O)[C@H](CO)NC(=O)[C@H](CCCNC(=N)N)NC(=O)[C@H](CC(C)C)NC(=O)[C@H](CCC(=O)O)NC(=O)[C@H](CCC(=O)O)NC(=O)[C@@H](N)CO)C(=O)N[C@@H](Cc1ccc(O)cc1)C(=O)N[C@@H](CC(N)=O)C(=O)N[C@H](C(=O)N[C@H](C(=O)N[C@@H](C)C(=O)N[C@H](C(=O)N[C@@H](CC(C)C)C(=O)N[C@@H](Cc1ccc(O)cc1)C(=O)N[C@@H](CS)C(=O)N[C@H](C(=O)N[C@@H](Cc1c[nH]cn1)C(=O)N[C@@H](CCC(N)=O)C(N)=O)C(C)C)[C@@H](C)O)C(C)C)[C@@H](C)O` [p17(72-90)], for which it took 7.23 µM to reach half-maximal inhibition (IC50).
